Chains of the proteins cited; added tags and fusions are not shown.
UniProt A9B244, entry or part of it: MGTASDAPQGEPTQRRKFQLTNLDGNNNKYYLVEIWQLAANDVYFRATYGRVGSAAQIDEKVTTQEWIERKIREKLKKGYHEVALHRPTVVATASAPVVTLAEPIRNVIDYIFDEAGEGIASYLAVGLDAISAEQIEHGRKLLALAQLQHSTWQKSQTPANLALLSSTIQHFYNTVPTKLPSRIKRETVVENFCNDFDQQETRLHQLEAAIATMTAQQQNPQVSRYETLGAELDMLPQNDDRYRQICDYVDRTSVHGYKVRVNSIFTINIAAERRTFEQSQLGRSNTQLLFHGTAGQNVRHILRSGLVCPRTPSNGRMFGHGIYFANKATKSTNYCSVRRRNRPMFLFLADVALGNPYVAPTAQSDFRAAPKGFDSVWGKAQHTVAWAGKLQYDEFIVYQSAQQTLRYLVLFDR

According to paper PMC5966428, “Comparative inhibitory profile and distribution of bacterial PARPs, using Clostridioides difficile CD160 PARP as a model” (Scientific Reports, 2018):

Tests used:
HaPARP = HaPARP (Herpetosiphon aurantiacus, UniProt A9B244); assay: Thermal stability assay (Sypro Orange melting curves); type: binding; conditions: compound at 1 mM; Tm in MilliQ water 39,75
CdPARP = assay: as above; type: binding, Clostridioides difficile CD160; conditions: compound at 1 mM; Tm in MilliQ water 40,27

Q: For `NC(=O)c1cccc(N)c1` [3-aminobenzamide], which “HaPARP Tm (melting temperature)” value (HaPARP) is on record?
A: 46,91±0,10 °C

Q: What about the “CdPARP Tm (melting temperature)” value (CdPARP) of the same molecule?
A: 41,96±0,06 °C
